In ChEMBL document CHEMBL1781933, “Neurosteroid analogues. 16. A new explanation for the lack of anesthetic effects of δ(16)-alphaxalone and identification of a δ(17(20)) analogue with potent anesthetic activity” (J Med Chem, 2011):

Test system: Xenopus laevis
Test: Anesthetic effect on Xenopus laevis tadpole assessed as loss of righting reflex
Assay type: functional, organism-based
Summary of the method: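 Xenopus tadpoles were exposed to steroid at five or more concentrations, with 10 or more animals per concentration. Loss of righting or swimming reflex was scored. EC50 and Hill coefficient were fitted from the dose–response curves; mean ± SEM.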

C[C@]12CC[C@@H](O)C[C@@H]1CC[C@@H]1[C@@H]2C(=O)C[C@]2(C)/C(=C\C#N)CC[C@@H]12
EC50: 1440 nM
